{"sequences": {"note": "Amino acid sequences for entries named in this document (tags omitted). A change or cut given only in a name is not applied to a line headed by its entry.", "UniProt Q8N1Q1": "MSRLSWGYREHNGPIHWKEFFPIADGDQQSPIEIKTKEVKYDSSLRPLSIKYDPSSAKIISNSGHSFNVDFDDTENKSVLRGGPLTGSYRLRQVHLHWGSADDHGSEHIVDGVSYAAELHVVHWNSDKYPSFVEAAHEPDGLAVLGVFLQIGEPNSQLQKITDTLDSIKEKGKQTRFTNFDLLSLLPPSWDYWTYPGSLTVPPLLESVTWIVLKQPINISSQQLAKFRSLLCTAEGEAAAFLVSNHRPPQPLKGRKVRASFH", "UniProt Q9Y2D0": "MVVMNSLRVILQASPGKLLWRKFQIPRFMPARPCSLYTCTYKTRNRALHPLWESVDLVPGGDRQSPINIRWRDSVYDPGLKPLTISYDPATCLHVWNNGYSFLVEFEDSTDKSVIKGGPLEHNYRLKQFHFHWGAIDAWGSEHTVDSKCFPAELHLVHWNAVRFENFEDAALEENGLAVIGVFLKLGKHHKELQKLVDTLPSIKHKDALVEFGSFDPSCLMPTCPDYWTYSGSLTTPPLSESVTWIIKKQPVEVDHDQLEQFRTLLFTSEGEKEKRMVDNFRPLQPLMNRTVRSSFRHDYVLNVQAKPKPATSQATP", "UniProt P43166": "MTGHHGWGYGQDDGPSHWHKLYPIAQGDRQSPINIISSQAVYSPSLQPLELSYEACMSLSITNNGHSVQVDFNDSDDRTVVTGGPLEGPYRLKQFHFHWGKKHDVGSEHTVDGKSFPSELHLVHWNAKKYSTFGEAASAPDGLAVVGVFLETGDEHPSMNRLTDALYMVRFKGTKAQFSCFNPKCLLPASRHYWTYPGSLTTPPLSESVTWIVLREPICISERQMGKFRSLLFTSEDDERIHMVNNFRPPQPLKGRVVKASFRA"}, "source": "ChEMBL document CHEMBL5036350", "about": "“Binding site comparison for coumarin inhibitors and amine/amino acid activators of human carbonic anhydrases” (Eur J Med Chem, 2021)", "settings_in_all_cases": "filed as activator", "key": {"[1]": {"target": "Carbonic anhydrase 2 (Homo sapiens) (UniProt P00918)", "assay": "Activation of human carbonic anhydrase 2 by stopped flow assay"}, "[2]": {"target": "Carbonic anhydrase 13 (Homo sapiens) (UniProt Q8N1Q1)", "assay": "Activation of human carbonic anhydrase 13 by stopped flow assay"}, "[3]": {"target": "Carbonic anhydrase 5B, mitochondrial (Homo sapiens) (UniProt Q9Y2D0)", "assay": "Activation of human carbonic anhydrase 5B by stopped flow assay"}, "[4]": {"target": "Carbonic anhydrase 7 (Homo sapiens) (UniProt P43166)", "assay": "Activation of human carbonic anhydrase 7 by stopped flow assay"}}}
{"smiles": "N[C@H](Cc1ccccc1)C(=O)O", "values": [{"measurement": "KA", "setting": "[1]", "value": 0.03, "unit": "µM"}, {"measurement": "KA", "setting": "[2]", "value": 0.05, "unit": "µM"}]}
{"smiles": "N[C@@H](Cc1ccccc1)C(=O)O", "values": [{"measurement": "KA", "setting": "[3]", "value": 10, "unit": "µM"}, {"measurement": "KA", "setting": "[4]", "value": 10, "unit": "µM"}, {"measurement": "KA", "setting": "[2]", "value": 1, "unit": "µM"}]}
